Conditions: oral, in drinking water, vs controls on untreated water ad libitum
Protocol: Mouse lines and husbandry—C57BL/6J-Pde6α^nmf363/nmf363, with a D670G mutation, herein referred to as Pde6α^D670G, mice were obtained from the Jackson Laboratory (Bar Harbor, ME, USA). Pde6α^D670G are co-isogenic in the C57BL/6J (B6) background; therefore, age-matched B6 mice were used as experimental controls. Mice were bred and maintained at the facilities of Columbia University and Stanford University. Animals were kept on a light-dark cycle (12 hour-12 hour). Food and water were available ad libitum throughout the experiment, whether treated or untreated. Dark-raising was performed under 24 hr dark cycle following approved institutional guidelines. […] All water bottles were covered in foil to reduce light exposure and changed weekly during the duration of the experiment following approved institutional guidelines.

O=C(O)CCC(=O)C(=O)O [alpha-ketoglutarate, Alpha-ketoglutaric acid]
size and weight of treated mice (side effect): smaller in size and weight than controls

Source: patent US12558336B2, “Metabolic rescue of retinal degeneration” (The Board of Trustees of the Leland Stanford Junior …, priority 2019, dated 2026)
